One compound from patent US10329299B2, “Heterocyclic compounds and uses thereof” (Infinity Pharmaceuticals, Inc., priority 2013, dated 2019) can be followed below.

Sequences of proteins named here, by UniProt entry; tags and fusion partners are left off.
UniProt P42336, whole entry: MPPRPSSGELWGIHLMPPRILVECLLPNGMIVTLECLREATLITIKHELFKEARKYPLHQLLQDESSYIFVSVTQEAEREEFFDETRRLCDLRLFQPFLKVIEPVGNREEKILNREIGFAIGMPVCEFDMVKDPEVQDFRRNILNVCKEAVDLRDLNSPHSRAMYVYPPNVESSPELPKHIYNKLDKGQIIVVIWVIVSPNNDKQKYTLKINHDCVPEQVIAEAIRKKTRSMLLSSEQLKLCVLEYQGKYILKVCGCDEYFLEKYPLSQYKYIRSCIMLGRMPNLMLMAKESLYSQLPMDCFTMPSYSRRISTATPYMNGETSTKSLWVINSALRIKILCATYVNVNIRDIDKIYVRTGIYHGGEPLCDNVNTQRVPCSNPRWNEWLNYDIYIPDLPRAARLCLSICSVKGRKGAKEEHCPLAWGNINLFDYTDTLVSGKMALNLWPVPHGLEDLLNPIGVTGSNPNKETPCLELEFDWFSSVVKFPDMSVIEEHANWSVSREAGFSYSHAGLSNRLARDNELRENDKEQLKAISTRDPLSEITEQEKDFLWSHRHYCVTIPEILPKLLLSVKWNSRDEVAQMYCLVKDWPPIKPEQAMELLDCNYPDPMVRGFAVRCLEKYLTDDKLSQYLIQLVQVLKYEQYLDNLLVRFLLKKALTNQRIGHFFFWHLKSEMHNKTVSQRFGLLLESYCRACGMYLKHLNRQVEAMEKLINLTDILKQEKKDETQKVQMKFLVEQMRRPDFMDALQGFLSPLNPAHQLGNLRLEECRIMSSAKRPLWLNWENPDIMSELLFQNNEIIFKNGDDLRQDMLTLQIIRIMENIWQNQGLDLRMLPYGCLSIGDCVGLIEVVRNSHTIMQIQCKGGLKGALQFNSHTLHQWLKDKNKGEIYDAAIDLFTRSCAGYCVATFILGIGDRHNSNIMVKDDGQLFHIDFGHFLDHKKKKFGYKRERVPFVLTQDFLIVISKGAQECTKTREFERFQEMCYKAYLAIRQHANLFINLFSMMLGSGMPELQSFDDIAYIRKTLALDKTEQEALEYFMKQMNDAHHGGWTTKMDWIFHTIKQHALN

SMILES strings stand for the structures.

The assay deals with α isoform of human Class I PI3 kinases (Homo sapiens (Human), UniProt P42336). Description: PI3-Kinase Promega ADP-Glo Max assay, α isoform. The settings on record: read-out: PI3K α IC50. Type of assay: biochemical. (In general: ADP-Glo turns the ADP formed in a reaction into a luminescent signal.)

The term IC50 denotes the concentration that inhibits the measured activity by half. As for `C[C@H](NC(=O)c1c(N)nn2cccnc12)c1cc2cccc(C#Cc3cnn(C)c3)c2c(=O)n1-c1ccccc1` [Compound 21], the IC50 fell in the range of 5 to 10 µM.
